In ChEMBL document CHEMBL4477202, “Synthesis and evaluation of duocarmycin SA analogs incorporating the methyl 1,2,8,8a-tetrahydrocyclopropa[c]imidazolo[4,5-e]indol-4-one-6-carboxylate (CImI) alkylation subunit” (Bioorg Med Chem, 2016):

Assay: Solvolysis reactivity of the compound in phosphate buffer assessed as solvolytic rate constant at pH 3 upto 187 hrs by UV spectrophotometry

Row | Structure (SMILES) | K [×10⁻⁶ /s]
1 | COC(=O)c1cc2c([nH]1)C(=O)C=C1N(C(=O)OC(C)(C)C)CC3CC123 (configuration not stated) | 1.08
2 | COC(=O)c1nc2c([nH]1)C(=O)C=C1N(C(=O)OC(C)(C)C)CC3CC123 (configuration not stated) | 5.52
